How the values were obtained:
[1] = molecular target: T1, Serotonin 2 (5-HT2) receptor (Rattus norvegicus, UniProt P30994+P08909+P14842)
[2] = molecular target: T1, Serotonin 2 (5-HT2) receptor; assay: Binding affinity to rat cortical membranes at 5-hydroxytryptamine 2 receptor binding site by using [3H]- DOB as a radioligand.
[3] = molecular target: T1, Serotonin 2 (5-HT2) receptor; remark: listed apart in the source
[4] = molecular target: T1, Serotonin 2 (5-HT2) receptor; assay: Binding affinity to rat cortical membranes at 5-hydroxytryptamine 2 receptor binding site by using [3H]- DOB as a radioligand
[5] = molecular target: 5-hydroxytryptamine receptor 1A (Rattus norvegicus, UniProt P19327)
[6] = molecular target: Serotonin 1 (5-HT1) receptor (Rattus norvegicus, UniProt P28564+P30940+P19327+P28565)

Chains of the proteins cited; added tags and fusions are not shown. Lines headed by an entry give the natural chain unless they say otherwise; changes in a name come on top.
UniProt P30994: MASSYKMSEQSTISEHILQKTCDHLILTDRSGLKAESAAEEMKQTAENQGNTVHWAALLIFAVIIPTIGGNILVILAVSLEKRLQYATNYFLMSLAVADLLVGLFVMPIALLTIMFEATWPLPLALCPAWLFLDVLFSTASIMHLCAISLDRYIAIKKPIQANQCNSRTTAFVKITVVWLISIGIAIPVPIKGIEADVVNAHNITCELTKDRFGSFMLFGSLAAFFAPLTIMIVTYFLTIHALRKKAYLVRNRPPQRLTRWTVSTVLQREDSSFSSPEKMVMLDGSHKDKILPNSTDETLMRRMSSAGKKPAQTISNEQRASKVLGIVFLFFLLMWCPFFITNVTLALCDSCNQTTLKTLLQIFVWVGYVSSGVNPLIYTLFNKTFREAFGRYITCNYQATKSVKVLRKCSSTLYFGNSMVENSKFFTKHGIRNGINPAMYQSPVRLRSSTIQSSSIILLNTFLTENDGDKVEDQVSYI
UniProt P08909: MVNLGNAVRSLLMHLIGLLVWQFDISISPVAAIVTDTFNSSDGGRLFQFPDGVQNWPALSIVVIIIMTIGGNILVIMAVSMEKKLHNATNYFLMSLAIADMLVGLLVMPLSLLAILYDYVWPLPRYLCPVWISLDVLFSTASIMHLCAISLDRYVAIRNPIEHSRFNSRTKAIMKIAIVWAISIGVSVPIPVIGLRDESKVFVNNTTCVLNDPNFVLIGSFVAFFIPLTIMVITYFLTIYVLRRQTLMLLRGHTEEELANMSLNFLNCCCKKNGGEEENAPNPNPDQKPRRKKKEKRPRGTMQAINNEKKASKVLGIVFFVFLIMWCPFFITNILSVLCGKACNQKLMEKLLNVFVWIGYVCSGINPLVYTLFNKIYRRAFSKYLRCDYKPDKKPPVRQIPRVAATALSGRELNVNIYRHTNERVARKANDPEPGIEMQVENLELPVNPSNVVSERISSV
UniProt P14842: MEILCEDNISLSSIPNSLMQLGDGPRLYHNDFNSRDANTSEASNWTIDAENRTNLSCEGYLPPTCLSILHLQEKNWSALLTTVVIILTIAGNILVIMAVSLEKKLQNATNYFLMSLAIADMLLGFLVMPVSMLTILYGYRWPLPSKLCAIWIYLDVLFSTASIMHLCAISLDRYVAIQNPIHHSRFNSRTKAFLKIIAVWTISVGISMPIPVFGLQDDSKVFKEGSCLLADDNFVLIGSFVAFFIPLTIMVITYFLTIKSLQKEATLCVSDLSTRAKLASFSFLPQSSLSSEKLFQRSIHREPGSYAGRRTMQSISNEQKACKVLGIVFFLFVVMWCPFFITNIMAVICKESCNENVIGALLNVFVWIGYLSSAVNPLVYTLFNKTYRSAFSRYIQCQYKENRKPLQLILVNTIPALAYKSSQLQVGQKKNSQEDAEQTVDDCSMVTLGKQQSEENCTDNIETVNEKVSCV
UniProt P19327, whole entry: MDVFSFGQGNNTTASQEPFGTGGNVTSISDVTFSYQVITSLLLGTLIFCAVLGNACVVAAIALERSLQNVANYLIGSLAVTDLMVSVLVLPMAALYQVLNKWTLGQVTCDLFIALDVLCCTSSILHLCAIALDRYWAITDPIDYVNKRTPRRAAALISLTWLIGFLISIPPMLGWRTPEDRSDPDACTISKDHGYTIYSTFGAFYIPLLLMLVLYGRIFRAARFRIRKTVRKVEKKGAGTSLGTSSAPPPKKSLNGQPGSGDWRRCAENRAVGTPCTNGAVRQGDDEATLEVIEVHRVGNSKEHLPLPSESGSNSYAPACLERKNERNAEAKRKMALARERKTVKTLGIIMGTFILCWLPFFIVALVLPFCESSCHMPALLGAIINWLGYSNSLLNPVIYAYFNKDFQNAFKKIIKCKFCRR
UniProt P28564: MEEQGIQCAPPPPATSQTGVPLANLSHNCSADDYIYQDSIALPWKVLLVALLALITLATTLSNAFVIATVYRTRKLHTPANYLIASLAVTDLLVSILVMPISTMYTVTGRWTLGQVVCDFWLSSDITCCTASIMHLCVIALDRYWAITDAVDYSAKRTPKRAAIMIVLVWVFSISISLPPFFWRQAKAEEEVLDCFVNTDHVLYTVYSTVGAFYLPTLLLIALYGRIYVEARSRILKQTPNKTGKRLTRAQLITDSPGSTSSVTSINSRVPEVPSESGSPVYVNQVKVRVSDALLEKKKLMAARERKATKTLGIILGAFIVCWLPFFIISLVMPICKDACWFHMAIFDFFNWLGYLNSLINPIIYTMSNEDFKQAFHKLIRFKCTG
UniProt P30940: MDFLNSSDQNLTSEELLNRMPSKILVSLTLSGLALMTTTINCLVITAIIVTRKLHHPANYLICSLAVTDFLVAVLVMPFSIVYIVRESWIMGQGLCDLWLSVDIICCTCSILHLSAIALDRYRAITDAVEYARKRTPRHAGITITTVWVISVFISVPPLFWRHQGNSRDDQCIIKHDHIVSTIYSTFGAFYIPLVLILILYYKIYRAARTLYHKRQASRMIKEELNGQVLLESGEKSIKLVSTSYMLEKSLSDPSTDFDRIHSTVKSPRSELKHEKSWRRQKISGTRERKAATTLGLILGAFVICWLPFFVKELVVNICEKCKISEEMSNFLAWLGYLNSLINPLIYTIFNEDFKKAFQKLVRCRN
UniProt P28565: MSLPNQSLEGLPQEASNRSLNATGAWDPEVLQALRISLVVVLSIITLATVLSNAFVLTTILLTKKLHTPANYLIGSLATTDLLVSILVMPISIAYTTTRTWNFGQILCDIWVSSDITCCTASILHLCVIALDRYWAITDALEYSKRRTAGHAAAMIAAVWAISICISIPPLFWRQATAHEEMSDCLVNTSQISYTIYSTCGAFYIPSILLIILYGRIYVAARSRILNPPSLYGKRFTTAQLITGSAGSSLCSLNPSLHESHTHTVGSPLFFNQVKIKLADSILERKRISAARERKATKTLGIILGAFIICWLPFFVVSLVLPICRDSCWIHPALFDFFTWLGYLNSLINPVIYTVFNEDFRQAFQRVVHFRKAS

`COc1ccc2[nH]cc(CCN)c2c1` [5-METHOXYTRYPTAMINE] showed a Ki [1] of 2570 nM, a Ki [2] of 14 nM and a Ki [3] of 690 nM. The Ki [4] was 14 nM.

Compound `COc1ccc2[nH]cc(CCN(C)C)c2c1` [MEBUFOTENIN] has a Ki [1] of 390 nM and a Ki [3] of 1200 nM.

`COc1ccc2[nH]cc(C3=CCNCC3)c2c1` [RU-24969] gave a Ki [5] of 5 nM and a Ki [6] of 2 nM.

With `NCCc1c[nH]c2ccc(O)cc12` [SEROTONIN] the Ki [5] was 3 nM.

Work on `O=C(CCCN1CCC2(CC1)C(=O)NCN2c1ccccc1)c1ccc(F)cc1` [SPIPERONE] yielded a Ki [3] of 2 nM and a Ki [4] of 1 nM.

From ChEMBL document CHEMBL1123653 (J Med Chem, 1987)
